Bioassay records (PubChem)
GIV Gai3 FP – inhibitors of GIV peptide binding to Galpha-i3, primary screen, biochemical, fluorescence polarization, FITC-GIV GBA peptide, rat Galphai3 | Guanine nucleotide-binding protein G(i) subunit alpha-3 (Rattus norvegicus), P08753 | 90 min; active compounds read low; scaled: aluminum fluoride 0%, vehicle 100% | 210,000 tested, 0.42% active | AID 1224905, 2016 | percent of control (FP), % (no concentration beside the values);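 active means replicate mean at 85% of control or lower, very high polarization wells dropped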;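 further: wells of about 15 µL received 100 nL stock; the first replicate is given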
* hit, by the source's call. This is one part of a sample in which hits are shown more often than they occur.

Amino acid sequences for entries named in this document (tags omitted).
Guanine nucleotide-binding protein G(i) subunit alpha-3 (Rattus norvegicus), P08753, UniProt P08753, whole entry, looked up: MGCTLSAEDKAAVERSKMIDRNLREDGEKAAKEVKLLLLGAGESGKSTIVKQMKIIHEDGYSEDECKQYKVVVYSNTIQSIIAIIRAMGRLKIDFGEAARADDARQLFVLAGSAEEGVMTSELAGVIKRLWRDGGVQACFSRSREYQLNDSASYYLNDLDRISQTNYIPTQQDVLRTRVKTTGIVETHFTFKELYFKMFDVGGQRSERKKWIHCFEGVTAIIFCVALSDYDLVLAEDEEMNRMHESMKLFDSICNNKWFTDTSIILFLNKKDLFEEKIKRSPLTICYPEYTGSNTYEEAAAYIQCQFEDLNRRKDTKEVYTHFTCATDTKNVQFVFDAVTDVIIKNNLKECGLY

Cc1cc(N2CCCC2)ccc1/C=C/C1=CCN(C)CC1
  GIV Gai3 FP: 113

C=CCn1c(C)c(/C=C/C2=CCN(C)CC2)c2ccccc21
  GIV Gai3 FP: -11*

C=CCn1c2ccccc2c2nn(C)c(=S)nc21
  GIV Gai3 FP: 106

Cc1c(C(=O)O)oc2c1-c1nn(Cc3cccc(Cl)c3)cc1CC2
  GIV Gai3 FP: 104

O=C(COc1cccc(-c2nc(-c3ccccc3)no2)c1)Nc1ccccc1F
  GIV Gai3 FP: 111

O=C(O)CCCN1C(=O)c2cccnc2Oc2ccc(Cl)cc21
  GIV Gai3 FP: 101

CN(C)/C=C/C=C1\CC/C(=C\C=C\N(C)C)C1=O
  GIV Gai3 FP: 155

CN(C)/C=C1\CCCc2ccccc2C1=O
  GIV Gai3 FP: 104

CN(C)/C=C/C=C1\CCc2ccccc2C1=O
  GIV Gai3 FP: -73*

CCn1nc2c(S(=O)(=O)N3CCN(c4ccc(F)cc4)CC3)cccn2c1=O
  GIV Gai3 FP: 104

O=C(CCC1CCCC1)N1CCCN(c2nc3cc(Cl)ccc3n3cccc23)CC1
  GIV Gai3 FP: 99

CCCCc1cc2c(=O)c(-c3cc4ccccc4o3)coc2cc1O
  GIV Gai3 FP: 99

CCCCc1cc(=O)oc2cc(C)cc(O)c12
  GIV Gai3 FP: 99

CCCCCCc1cc2cc(C#N)c(=O)oc2cc1O
  GIV Gai3 FP: -3.8*

COc1cc(/C=C2\SC(=S)N(CC(=O)Nc3ncc(Cc4ccccc4Cl)s3)C2=O)cc(OC)c1OC
  GIV Gai3 FP: 114

CN(C)/C=C/C(=S)c1cccs1
  GIV Gai3 FP: 114

CN(C)/C=c1\s/c(=C/C(=O)c2cccs2)[nH]c1=O
  GIV Gai3 FP: 73*

CCCN1C(=O)/C(=C\C(=O)c2cccs2)c2ccccc21
  GIV Gai3 FP: 101

N=C1/C(=C\c2cn(CCOc3ccccc3Cl)c3ccccc23)C(=O)N=C2SC=NN12
  GIV Gai3 FP: 11*

CCC1=NN2C(=N)/C(=C/c3cn(CCOc4cccc(OC)c4)c4ccccc34)C(=O)N=C2S1
  GIV Gai3 FP: 100

Cc1ccc(C)c(OCCn2cc(/C=C3\C(=N)N4N=C(S(C)(=O)=O)SC4=NC3=O)c3ccccc32)c1
  GIV Gai3 FP: 100

COc1ccc(-n2c(C)cc(CNS(=O)(=O)c3ccc(C)cc3)c2C)cc1
  GIV Gai3 FP: 119

Clc1ccc(-c2csc(-c3ccno3)n2)cc1Cl
  GIV Gai3 FP: 109

COC(=O)Cn1cc(/C=C2/C(=O)NC(=O)N(c3ccc(Br)c(C)c3)C2=O)c2ccccc21
  GIV Gai3 FP: 114

CCOC(=O)c1c(C)n(-c2ccc(C)cc2)c2ccc(OCC(O)Cn3cnc4ccccc43)cc12 (stereo not given)
  GIV Gai3 FP: 100

CCOC(=O)C1=C(O)/C(=C/c2ccc(N3CCOCC3)o2)SC1=Nc1ccc(OCC)cc1
  GIV Gai3 FP: -15*

CCOC(=O)C1=C(O)/C(=C/c2ccc(OCC)cc2)SC1=Nc1ccccc1
  GIV Gai3 FP: 112

CCOC(=O)C1=C(O)/C(=C/c2ccc(OC)cc2)SC1=Nc1ccc(OC)cc1
  GIV Gai3 FP: 107

Cc1nnc2ccc(N3CCC(C(=O)N4CCCCC4)CC3)nn12
  GIV Gai3 FP: 101

CCCOc1ccccc1C1NC(=O)NC(C)=C1C(=O)OCCOc1ccccc1 (stereo not given)
  GIV Gai3 FP: 119

Cn1c(=O)c(-c2noc(C(=O)NCCN3CCCC3)n2)nn(-c2ccc(F)cc2)c1=O
  GIV Gai3 FP: 96

CCOC(=O)Cc1ccc(-n2c(C)ccc2C)cc1
  GIV Gai3 FP: 175

CCOC(=O)c1c(N2C(=O)CCC2=O)sc2c1CCCC2
  GIV Gai3 FP: 104

CCOC(=O)c1c(/N=C/C2C(=O)NC(=S)NC2=O)sc2c1CCCCC2
  GIV Gai3 FP: -21*

CCOC(=O)c1c(NC(=O)CC2NCCNC2=O)sc2c1CCCC2 (stereo not given)
  GIV Gai3 FP: 107

CCS(=O)(=O)N1CCN(c2ncnc3c2nnn3-c2ccc(OC)cc2)CC1
  GIV Gai3 FP: 100

O=c1ccc(-c2ccc3c(c2)OCO3)nn1CCc1nc(-c2cccnc2)no1
  GIV Gai3 FP: 109

NNC(=O)c1oc2nc(-c3ccccc3)cc(-c3ccccc3)c2c1N
  GIV Gai3 FP: 105

COc1cccc(/C=N/NC(=O)c2oc3nc(-c4ccccc4)cc(-c4ccco4)c3c2N)c1
  GIV Gai3 FP: -54*

COc1cccc(/C=N/NC(=O)CNc2ccccc2)c1
  GIV Gai3 FP: 98

O=C(c1cccc(Cl)c1)N1N=C(C(F)(F)F)CC1(O)C(F)(F)F (stereo not given)
  GIV Gai3 FP: 106

CCOc1ccccc1NC(=O)C1CCCN(c2ccc(-c3ccccc3)nn2)C1 (stereo not given)
  GIV Gai3 FP: 96

CCOC(=O)C1=CC2(SC=C(C(=O)OCC)S2)C2=C(S1)C(C)(C)N(C(=O)c1ccccc1)c1ccccc12 (stereo not given)
  GIV Gai3 FP: 110

O=c1oc2c(CN3CCOCC3)c(O)ccc2cc1-c1ccccc1
  GIV Gai3 FP: 102

CN1CCN(Cc2c(O)ccc3cc(-c4nc5ccccc5n4C)c(=O)oc23)CC1
  GIV Gai3 FP: 131

O=c1oc2ccccc2cc1-c1nc2ccccc2s1
  GIV Gai3 FP: 101

O=c1oc2c(CN3CCCCCC3)c(O)ccc2cc1-c1nc2ccccc2s1
  GIV Gai3 FP: -32*

O=c1oc2cc(OCc3cccc(Cl)c3)ccc2cc1-c1nc2ccccc2s1
  GIV Gai3 FP: 106

COc1ccc(-c2cc3ccc(O)c(CN4CCOCC4)c3oc2=O)cc1OC
  GIV Gai3 FP: 124

O=c1oc2ccc(Br)cc2cc1-c1nc2ccccc2s1
  GIV Gai3 FP: 104

O=c1oc2c(CN3CCN(CCO)CC3)c(O)ccc2cc1-c1nc2ccccc2s1
  GIV Gai3 FP: -45*

CN(C)Cc1c(O)ccc2cc(-c3nc4ccccc4s3)c(=O)oc12
  GIV Gai3 FP: -45*

CC1CCN(Cc2c(O)ccc3cc(-c4nc5ccccc5s4)c(=O)oc23)CC1
  GIV Gai3 FP: -32*

COc1ccc(-c2cc3ccc(O)c(CN4CCN(CCO)CC4)c3oc2=O)cc1OC
  GIV Gai3 FP: 125

N#CCOc1ccc2cc(-c3nc4ccccc4s3)c(=O)oc2c1
  GIV Gai3 FP: 155

c1cc(-c2noc(C3CCOC3)n2)cc(N2CCOCC2)n1 (stereo not given)
  GIV Gai3 FP: 99

CCCOc1ccc(Oc2nc(C)nc3sc(C)c(C)c23)cc1
  GIV Gai3 FP: 101

CCCNC(=O)c1ccc(Oc2ccc(NS(=O)(=O)c3ccc(Br)cc3)cc2)nc1
  GIV Gai3 FP: 98

CCNc1cc(C)nc(N2CCN(S(=O)(=O)c3ccc(OCC)cc3)CC2)n1
  GIV Gai3 FP: 102

Cc1ccc(OCc2nc(C#N)c(N(C)C)o2)cc1
  GIV Gai3 FP: 107

Retrieved by structure from the list above, 3 records:
CN1CCN(Cc2c(O)ccc3cc(-c4nc5ccccc5n4C)c(=O)oc23)CC1
  GIV Gai3 FP: 131

O=c1oc2ccc(Br)cc2cc1-c1nc2ccccc2s1
  GIV Gai3 FP: 104

CCCCc1cc2c(=O)c(-c3cc4ccccc4o3)coc2cc1O
  GIV Gai3 FP: 99

2 entries from above in a different format.
mol	GIV Gai3 FP
COc1ccc(-c2cc3ccc(O)c(CN4CCN(CCO)CC4)c3oc2=O)cc1OC	125
N#CCOc1ccc2cc(-c3nc4ccccc4s3)c(=O)oc2c1	155

(listing goes on)
COc1ccc(-c2nnc(NC(=O)c3ccc4c(c3)OCO4)s2)c(OC)c1
  GIV Gai3 FP: 100

O=c1oc2c(CN3CCCCC3)c(O)ccc2cc1-c1nc2ccccc2s1
  GIV Gai3 FP: -32*

Cc1c(-c2ccccc2)c(=O)oc2c(CN3CCCC3)c(O)ccc12
  GIV Gai3 FP: 105

COC(=O)C(C)Oc1ccc2cc(-c3nc4ccccc4s3)c(=O)oc2c1 (stereo not given)
  GIV Gai3 FP: 120

CC(CNC(=O)C1CCCN(C(=O)N2CCOc3ccccc32)C1)c1ccccc1 (stereo not given)
  GIV Gai3 FP: 103

Cc1cc2nc(NCc3ccc4c(c3)OCO4)c(C(=O)OC(C)C)nc2cc1C
  GIV Gai3 FP: 76*

CCOC(=O)c1nc(NCc2ccc3c(c2)OCO3)c2ccccc2n1
  GIV Gai3 FP: 102

c1cc2c(cc1CNc1nc3nonc3nc1NCc1ccc3c(c1)OCO3)OCO2
  GIV Gai3 FP: 107

CCOC(=O)c1ccccc1NC(=O)CSc1ncccn1
  GIV Gai3 FP: 104

CN(C)S(=O)(=O)N(CC(=O)N1CCN(c2ncccn2)CC1)c1ccc(F)cc1
  GIV Gai3 FP: 103

CCC(C)Cn1c(CN2CCCCC2)nc2ccccc21 (stereo not given)
  GIV Gai3 FP: 102

O=C1c2ccccc2-c2c(NCCc3ccccc3)c(=O)[nH]c3cccc1c23
  GIV Gai3 FP: -73*

Nc1c2c3c(c(Cl)ccc3[nH]c1=O)C(=O)c1ccccc1-2
  GIV Gai3 FP: 102

CCCCNc1c(Cl)cnn(-c2ccccc2)c1=O
  GIV Gai3 FP: 100

O=C1c2ccccc2-c2c(Nc3ccccc3)c(=O)[nH]c3cccc1c23
  GIV Gai3 FP: 111

O=c1[nH]ncc(NCCc2ccccc2)c1Cl
  GIV Gai3 FP: 97

CCCCNc1c2c3c(cccc3[nH]c1=O)C(=O)c1ccccc1-2
  GIV Gai3 FP: -48*

CCCN(CCC)C(=O)c1cn(C)c2ccc(S(=O)(=O)N3CCC(C)CC3)cc2c1=O
  GIV Gai3 FP: 101

CCSc1nc2cc(-c3ccccc3)sc2c(=O)n1C
  GIV Gai3 FP: 102

COc1ccc(C2Nc3ccccc3C(=O)N2c2ccc(Cl)cc2)cc1CN1CCOCC1 (stereo not given)
  GIV Gai3 FP: 108
